{"source": "patent US8173813B2", "about": "“Quinolone and tetrahydroquinolone and related compounds having NOS inhibitory activity” (NeurAxon, Inc., priority 2007, dated 2012)", "data": [{"molecular_target": "Nitric oxide synthase (neuronal, human recombinant) nNOS (Homo sapiens, UniProt P29475)", "assay": "Human nNOS enzyme assay ([3H]L-arginine to [3H]L-citrulline)", "assay_type": "biochemical", "details": "human enzymes; ratio of eNOS IC50 to nNOS IC50", "values": [{"compound": "CN(C)CCN1CCCCc2cc(NC(=N)c3cccs3)ccc21.Cl.Cl", "note": "[Example 28, N-(1-(2-(Dimethylamino)ethyl)-2,3,4,5-tetrahydro-1H-benzo[b]azepin-7-yl)thiophene-2-carboximidamide dihydrochloride]", "Selectivity eNOS/nNOS": 225}, {"compound": "CNCCCN1CCCc2cc(NC(=N)c3cccs3)ccc21", "note": "[Example 63, N-(1-(3-(methylamino)propyl)-2,3,4-tetrahydroquinolin-6-yl)thiophene-2-carboximidamide]", "Selectivity eNOS/nNOS": 95.7}, {"compound": "CNCCN1CCCCc2cc(NC(=N)c3cccs3)ccc21", "note": "[Example 36, N-(1-(2-(Methylamino)ethyl)-2,3,4,5-tetrahydro-1H-benzo[b]azepin-7-yl)thiophene-2-carboximidamide]", "Selectivity eNOS/nNOS": 123}, {"compound": "N=C(Nc1ccc2c(c1)CCCCN2CCN1CCCCC1)c1cccs1", "note": "[Example 40, N-(1-(2-(Piperidin-1-yl)ethyl)-2,3,4,5-tetrahydro-1H-benzo[b]azepin-7-yl)thiophene-2-carboximidamide]", "Selectivity eNOS/nNOS": 29.6}, {"compound": "CN1CCCC1CCN1CCCCc2cc(NC(=N)c3cccs3)ccc21", "note": "(stereo not drawn) [Example 45, N-(1-(2-(1-Methylpyrrolidin-2-yl)ethyl)-2,3,4,5-tetrahydro-1H-benzo[b]azepin-7-yl)thiophene-2-carboximidamide]", "Selectivity eNOS/nNOS": 17}]}, {"molecular_target": "nNOS (Rat) (Rattus norvegicus, UniProt P29476)", "assay": "nNOS (Rat) enzyme assay", "assay_type": "biochemical", "details": "rodent enzymes; values in parentheses", "procedure": "nNOS (Rat), eNOS (Rat) and iNOS (Mouse) Enzyme Assay Recombinant rat or mouse NO synthases (iNOS, eNOS, nNOS) were expressed in Sf9 cells (Sigma), 36 mg prot/ml (Bradford). […] Inhibition of NOS was determined by measuring the formation of L-[3H] citrulline from L-[3H] arginine. […] Stop buffer:100 mM Hepes, pH 5.5, 3 mM EDTA, 3 mM EGTA.", "values": [{"compound": "CN(C)CCN1CCCCc2cc(NC(=N)c3cccs3)ccc21.Cl.Cl", "note": "[Example 28, N-(1-(2-(Dimethylamino)ethyl)-2,3,4,5-tetrahydro-1H-benzo[b]azepin-7-yl)thiophene-2-carboximidamide dihydrochloride]", "Selectivity eNOS/nNOS (rodent data in parentheses)": "(321)"}]}]}
